Sequences of proteins named here, by UniProt entry; tags and fusion partners are left off. Residues count along the entry.
UniProt Q92793, 1085-1192 limits assumed: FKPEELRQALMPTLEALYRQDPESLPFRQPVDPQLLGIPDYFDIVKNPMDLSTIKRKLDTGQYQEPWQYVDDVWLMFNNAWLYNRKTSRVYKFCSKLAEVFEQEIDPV

According to patent EP4831169A1, “NOVEL COMPOUND USED AS CBP/P300 INHIBITOR, AND PHARMACEUTICAL COMPOSITION FOR PREVENTING OR TREATING CANCER, INFLAMMATORY DISORDERS, OR AUTOIMMUNE DISEASES COMPRISING SAME AS ACTIVE INGREDIENT” (dated 2026):

Columns and labels:
[1] = biological target: CBP BRD protein (Homo sapiens, UniProt Q92793); test: CBP bromodomain TR-FRET inhibitory activity assay; conditions: read-out: CBP BRD IC50, Table 3
Experimental: A time resolved fluorescence resonance energy transfer (TR-FRET) experiment was used to verify the activity of CBP bromodomain.
The assay was performed in a final volume of 14 µL, optimized based on a CREBBP time resolved fluorescence resonance energy transfer (TR-FRET) assay kit (BPS Bioscience, cat. 32619) to maximize an assay window, and performed in a final volume of 14 µL, while maximizing the assay window. A TR-FRET fluorescence acceptor and a Tb donor were diluted in an assay buffer containing 2-[4-(2-hydroxyethyl)piperazin-1-yl]ethanesulfonic acid (HEPES) (hereafter, referred to as an assay buffer, BPS Bioscience, cat. 33012), and 3 µL of each solution was transferred to all wells of a white 384-low-volume well plate (Corning, cat. 4513). 2 µL of 4X Ac-H4 peptide (final concentration 85 nM) was transferred to high control wells and test wells. Each compound was prepared at 10 concentration points by serially diluting 3-fold from the highest concentration in a dimethyl sulfoxide solvent. The compound at each concentration was then diluted in the assay buffer to prepare a diluted compound solution that was 4-fold more concentrated than the final concentration. 2 µL of each compound or dimethyl sulfoxide prepared in this way was distributed into an assay plate so that the final test concentration was a minimum of 0.5 µM to a maximum of 10 µM (final dimethyl sulfoxide concentration 1%). 6 µL of 1X assay buffer was added to low control wells and 2 µl was added to high control and test wells. Then, 2 µL of 4X CBP BRD protein (final concentration 7.5 nM, BPS bioscience, cat 31128) was added to initiate a PPI reaction. The plate was reacted at room temperature for 2 hours before measuring the signal. The TR-FRET signal was measured using an EnVision Multilabel plate reader (PerkinElmer; Mirror LNACE/DELFIA Dual/Bias). For data analysis, the values of each well were obtained using a TR-FRET ratio ((Signal 665 nm/Signal 615 nm)×20000). Data analysis was performed using the TR-FRET ratio ((Signal 665 nm/Signal 615 nm)×20000). Data were reported as percent inhibition compared to control wells based on the following equation: %Activity = ((FRETcompound - FRETLow av)/(FRETHigh av - FRETLow av))×100. IC50 analysis was determined by standard 4 parameter curve fitting according to an algorithm using GraphPad Prism 7.0 (GraphPad Software Inc., La Jolla, CA, USA). All data are expressed as mean ± standard error of the mean (SEM).

[2] = biological target: BRD4 (BD1) protein (Homo sapiens, UniProt O60885); test: BRD4 bromodomain TR-FRET inhibitory activity assay; conditions: read-out: BRD4 (BD1) IC50, Table 4
Experimental: BRD inhibitory activity was measured using a time resolved fluorescence resonance energy transfer (TR-FRET) experiment to verify the activity of BRD4 bromodomain.
The assay was performed in a final volume of 14 µL, optimized based on a CREBBP time resolved fluorescence resonance energy transfer (TR-FRET) assay kit (BPS Bioscience, cat. 32613) to maximize an assay window, and performed in a final volume of 14 µL, while maximizing the assay window. A TR-FRET fluorescence acceptor and a Tb donor were diluted in an assay buffer containing 2-[4-(2-hydroxyethyl)piperazin-1-yl]ethanesulfonic acid (HEPES) (hereafter, referred to as an assay buffer, BPS Bioscience, cat. 33012), and 3 µL of each solution was transferred to all wells of a white 384-low-volume well plate (Corning, cat. 4513). 2 µL of 4X Ac-H4 peptide (final concentration 15 nM) was transferred to high control wells and test wells. Each compound was prepared at 10 concentration points by serially diluting 3-fold from the highest concentration in a dimethyl sulfoxide (DMSO) solvent. The compound at each concentration was then diluted in the assay buffer to prepare a diluted compound solution that was 4-fold more concentrated than the final concentration. 2 µL of each compound or dimethyl sulfoxide prepared in this way was distributed into an assay plate so that the final test concentration was a minimum of 0.5 µM to a maximum of 10 µM (final DMSO concentration 1%). 6 µL of 1X assay buffer was added to low control wells and 2 µL was added to high control and test wells. Then, 2 µL of 4X BRD4 (BD1) protein (final concentration 7.5 nM, BPS bioscience, cat 31040) was added to initiate a PPI reaction. The plate was reacted at room temperature for 2 hours before measuring the signal. The TR-FRET signal was measured using an EnVision Multilabel plate reader (PerkinElmer; Mirror LNACE/DELFIA Dual/Bias). For data analysis, the values of each well were obtained using the TR-FRET ratio ((Signal 665 nm/Signal 615 nm)×20000). Data analysis was performed using the TR-FRET ratio ((Signal 665 nm/Signal 615 nm)×20000). Data were reported as percent inhibition compared to control wells based on the following equation: %Activity = ((FRETcompound - FRETLow av)/(FRETHigh av - FRETLow av))×100. IC50 analysis was determined by standard 4 parameter curve fitting according to an algorithm using GraphPad Prism 7.0 (GraphPad Software Inc., La Jolla, CA, USA). All data are expressed as mean ± standard error of the mean (SEM).

IC50 [1] [nM]	IC50 [2] [µM]	Molecule
500 to 5000	> 5	CN(C)C(=O)c1cc2nc(C(C)(C)C)n(-c3cc(N4CCOCC4)c4c(c3)n(C)c(=O)n4C)c2cc1F
< 500	0.5 to 5	C[C@@H]1CCN1c1cc(-n2c(-c3cncn3C)nc3cc(-c4cnn(C)c4)c(F)cc32)cc2c1n(C)c(=O)n2C
< 500	> 5	CN1CCN(c2cc(-n3c(-c4cncn4C)nc4cc(-c5cnn(C)c5)c(F)cc43)cc3c2n(C)c(=O)n3C)CC1
< 500	0.5 to 5	Cn1cc(-c2cc3nc(C(C)(C)C)n(-c4cc(N5CC(C)(O)C5)c5c(c4)n(C)c(=O)n5C)c3cc2OC(F)F)cn1
< 500	> 5	Cn1cc(-c2cc3nc(-c4cncn4C)n(-c4cc(C5CCOCC5)c5c(c4)n(C)c(=O)n5C)c3cc2C(F)(F)F)cn1
< 500	0.5 to 5	Cc1ncc(-c2cc3nc(C(C)(C)C)n(-c4cc(N5CC(C)(O)C5)c5c(c4)n(C)c(=O)n5C)c3cc2C(F)F)s1
< 500	0.5 to 5	COC1CN(c2cc(-n3c(-c4cncn4C)nc4cc(-c5cnn(C)c5)c(F)cc43)cc3c2n(C)c(=O)n3C)C1
500 to 5000	> 5	CNC(=O)c1cc2nc(C(C)(C)C)n(-c3cc(N4CCOCC4)c4c(c3)n(C)c(=O)n4C)c2cc1F
< 500	> 5	Cn1cc(-c2cc3nc(C(C)(C)C)n(-c4cc(N5CCOCC5)c5c(c4)n(C)c(=O)n5C)c3cc2CO)cn1
< 500	> 5	Cn1cc(-c2cc3nc(-c4cncn4C)n(-c4cc(C5=CCN(C(=O)OC(C)(C)C)CC5)c5c(c4)n(C)c(=O)n5C)c3cc2F)cn1
< 500	> 5	Cn1cc(-c2cc3nc(C(C)(C)C)n(-c4cc(C5CCC(O)CC5)c5c(c4)n(C)c(=O)n5C)c3cc2C(F)F)cn1 (stereo not shown)
< 500	> 5	CC(C)Nc1cc(-n2c(C(C)(C)C)nc3cc(-c4cnn(C)c4)c(F)cc32)cc2c1n(C)c(=O)n2C
< 500	> 5	Cn1cc(-c2cc3nc(-c4cncn4C)n(-c4cc(-c5ccncc5)c5c(c4)n(C)c(=O)n5C)c3cc2F)cn1
< 500	> 5	CC(C)Nc1cc(-n2c(C(C)(C)C)nc3cc(-c4ccc5c(c4)OCC(=O)N5)c(F)cc32)cc2c1n(C)c(=O)n2C
< 500	> 5	CC(C)Nc1cc(-n2c(-c3cncn3C)nc3cc(-c4ccn(C)n4)c(F)cc32)cc2c1n(C)c(=O)n2C
< 500	> 5	C#CC(C)(C)c1nc2cc(-c3cnn(C)c3)c(F)cc2n1-c1cc(N2CCOCC2)c2c(c1)n(C)c(=O)n2C
500 to 5000	> 5	CC(=O)Nc1ccc(-c2cc3nc(-c4cncn4C)n(-c4cc(C5=CCN(C(=O)OC(C)(C)C)CC5)c5c(c4)n(C)c(=O)n5C)c3cc2F)cc1
< 500	0.5 to 5	CNC(=O)c1ccc(-c2cc3nc(-c4cncn4C)n(-c4ccc5c(c4)n(C)c(=O)n5C)c3cc2C(=O)OC)cc1F

IC50 [1] [nM]	IC50 [2] [µM]	Molecule
< 500	0.5 to 5	Cn1cc(-c2cc3nc(-c4cncn4C)n(-c4cc(N5CCC5)c5c(c4)n(C)c(=O)n5C)c3cc2C(F)F)cn1
< 500	> 5	4-(3-allyloxy-3-methyl-azetidin-1-yl)-6-[2-tert-butyl-6-(difluoromethyl)-5-(1-methylpyrazol-4-yl)benzimidazol-1-yl]-1,3-dimethyl-benzimidazol-2-one
< 500	> 5	Cn1cc(-c2cc3nc(C(C)(C)C)n(-c4cc(N5CCOCC5)c5c(c4)n(C)c(=O)n5C)c3cc2/C=N/O)cn1
< 500	0.5 to 5	CC(C)N(C)c1cc(-n2c(-c3cncn3C)nc3cc(-c4cnn(C)c4)c(F)cc32)cc2c1n(C)c(=O)n2C
< 500	> 5	CC(C)=Cc1cc(-n2c(-c3cncn3C)nc3cc(-c4cnn(C)c4)c(F)cc32)cc2c1n(C)c(=O)n2C
< 500	> 5	Cn1cc(-c2cc3nc(-c4cncn4C)n(-c4cc(N5CC(F)(F)C5)c5c(c4)n(C)c(=O)n5C)c3cc2C#N)cn1
< 500	> 5	CC(C)c1cc(-n2c(-c3cncn3C)nc3cc(-c4cnn(C)c4)c(C(F)(F)F)cc32)cc2c1n(C)c(=O)n2C
< 500	> 5	Cn1cc(-c2cc3nc(C(C)(C)C)n(-c4cc(N5CCOCC5)c5c(c4)n(C)c(=O)n5C)c3cc2N)cn1
< 500	> 5	Cn1cc(-c2cc3nc(C(C)(C)C)n(-c4cc(OCCN5CCOCC5)c5c(c4)n(C)c(=O)n5C)c3cc2C(F)F)cn1
< 500	> 5	Cn1cc(-c2cc3nc(C(C)(C)C)n(-c4cc(N5CCC(O)CC5)c5c(c4)n(C)c(=O)n5C)c3cc2C(F)(F)F)cn1
< 500	> 5	COC1(C)CN(c2cc(-n3c(C(C)(C)C)nc4cc(-c5cnn(C)c5)c(C(F)(F)F)cc43)cc3c2n(C)c(=O)n3C)C1
< 500	> 5	Cn1cc(-c2cc3nc(C(C)(C)C)n(-c4cc(N5CCOCC5)c5c(c4)n(C)c(=O)n5C)c3cc2C(=O)O)cn1
> 5000	> 5	CC(=O)Nc1cc2c(cc1-c1cnn(C)c1)nc(C(C)(C)C)n2-c1cc(N2CCOCC2)c2c(c1)n(C)c(=O)n2C
< 500	0.5 to 5	Cn1cncc1-c1nc2cc(-c3ccc4c(c3)OCC(=O)N4)c(F)cc2n1-c1cc(C2CCOCC2)c2c(c1)n(C)c(=O)n2C
< 500	> 5	Cn1cc(-c2cc3nc(C(C)(C)C)n(-c4cc(N5CCSCC5)c5c(c4)n(C)c(=O)n5C)c3cc2C(F)F)cn1
< 500	> 5	CC(C)Nc1cc(-n2c(C(C)(C)C)nc3cc(-c4cnn(C)c4)c(C(F)(F)F)cc32)cc2c1n(C)c(=O)n2C
< 500	> 5	COCc1cc2c(cc1-c1cnn(C)c1)nc(C(C)(C)C)n2-c1cc(N2CCOCC2)c2c(c1)n(C)c(=O)n2C
